From patent US9334256B2, “Agents and methods for treating ischemic and other diseases” (NoNO INC., priority 2011, dated 2016)

By UniProt entry, the sequences of proteins in these tests, tags left out.
UniProt Q923J1, whole entry: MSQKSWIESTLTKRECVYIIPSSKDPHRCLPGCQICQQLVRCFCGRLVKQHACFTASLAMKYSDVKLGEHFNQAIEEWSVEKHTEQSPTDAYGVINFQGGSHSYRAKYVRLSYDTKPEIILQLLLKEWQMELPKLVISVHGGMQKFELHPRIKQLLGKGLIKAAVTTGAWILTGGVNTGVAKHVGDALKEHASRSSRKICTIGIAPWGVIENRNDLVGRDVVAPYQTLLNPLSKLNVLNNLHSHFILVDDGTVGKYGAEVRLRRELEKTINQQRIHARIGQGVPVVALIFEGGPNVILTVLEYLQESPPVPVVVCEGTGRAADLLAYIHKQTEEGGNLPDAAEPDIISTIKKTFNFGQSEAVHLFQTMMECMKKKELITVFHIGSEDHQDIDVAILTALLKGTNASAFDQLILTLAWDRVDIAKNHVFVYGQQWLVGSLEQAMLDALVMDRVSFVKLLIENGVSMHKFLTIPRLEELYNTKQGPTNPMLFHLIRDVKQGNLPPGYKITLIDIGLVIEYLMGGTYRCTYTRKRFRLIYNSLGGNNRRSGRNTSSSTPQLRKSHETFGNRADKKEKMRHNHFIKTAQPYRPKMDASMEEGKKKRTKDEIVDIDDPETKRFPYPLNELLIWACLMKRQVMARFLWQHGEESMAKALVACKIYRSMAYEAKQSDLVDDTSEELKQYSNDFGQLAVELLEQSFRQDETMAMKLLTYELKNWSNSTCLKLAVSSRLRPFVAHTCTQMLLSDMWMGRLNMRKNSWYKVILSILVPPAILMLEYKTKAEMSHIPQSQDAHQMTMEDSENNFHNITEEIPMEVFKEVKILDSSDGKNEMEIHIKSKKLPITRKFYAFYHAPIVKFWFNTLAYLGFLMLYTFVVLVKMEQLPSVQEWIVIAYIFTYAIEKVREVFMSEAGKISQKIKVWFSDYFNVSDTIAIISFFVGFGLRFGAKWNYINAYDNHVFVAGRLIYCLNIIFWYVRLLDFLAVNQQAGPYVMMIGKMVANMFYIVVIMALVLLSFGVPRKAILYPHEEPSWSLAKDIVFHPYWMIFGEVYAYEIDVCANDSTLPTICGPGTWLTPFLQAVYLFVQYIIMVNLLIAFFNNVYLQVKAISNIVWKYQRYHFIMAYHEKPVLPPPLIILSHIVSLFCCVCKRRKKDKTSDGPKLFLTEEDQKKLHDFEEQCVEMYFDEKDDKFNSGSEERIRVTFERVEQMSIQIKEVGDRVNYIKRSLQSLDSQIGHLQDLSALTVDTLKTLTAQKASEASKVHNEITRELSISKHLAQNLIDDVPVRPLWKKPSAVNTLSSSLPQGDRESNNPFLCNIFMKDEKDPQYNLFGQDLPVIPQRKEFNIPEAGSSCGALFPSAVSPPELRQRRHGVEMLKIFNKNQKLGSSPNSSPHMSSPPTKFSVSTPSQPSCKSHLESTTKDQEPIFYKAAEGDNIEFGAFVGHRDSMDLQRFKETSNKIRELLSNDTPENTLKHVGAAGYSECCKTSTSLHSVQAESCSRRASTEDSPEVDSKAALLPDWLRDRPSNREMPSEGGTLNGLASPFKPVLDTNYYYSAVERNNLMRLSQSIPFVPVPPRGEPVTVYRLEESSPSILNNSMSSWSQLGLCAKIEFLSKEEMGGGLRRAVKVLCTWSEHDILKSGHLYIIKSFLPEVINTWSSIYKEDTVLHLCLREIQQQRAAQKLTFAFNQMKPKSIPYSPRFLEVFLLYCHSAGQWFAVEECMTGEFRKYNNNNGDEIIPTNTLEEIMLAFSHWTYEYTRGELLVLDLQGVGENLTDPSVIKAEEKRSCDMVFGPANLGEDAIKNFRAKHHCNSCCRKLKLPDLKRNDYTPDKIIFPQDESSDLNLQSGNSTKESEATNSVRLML

Columns and labels:
TRPM7 ion channel = TRPM7 ion channel (Mus musculus, UniProt Q923J1); assay: Whole-cell patch clamp of TRPM7 currents in HEK293 cells; settings: value shown = concentration at which the compound significantly inhibits the ion channel
Method: To further understand the structure function relationships between the TRPM7 inhibitors identified in the TRPM7-dependent HEK death assay, the activity of a subset of these inhibitors described herein were tested for their ability to inhibit TRPM7 currents in cell systems. Whole-cell patch clamp recordings were used essentially as described to test the TRPM7 inhibitors in HEK293 cells, H9c2 cardiomyocytes and cultured neurons. […] Those that provide >10% inhibition of TRPM7 channel activity in the HEK293 cell system were labeled with the concentration tested (generally 5 uM). Thus, the compounds in this table marked with such a value are able to block the activity gof the TRPM7 ion channel. FIGS. 2A-C provide an example of this for the TRPM7 inhibitor 399 (Structure 9). […] Numbers in brackets indicate the number of independent tests, and the bars represent the SEM.
Whole-cell currents were recorded using an Axopatch 1D or MultiClamp 700B amplifier and were digitized at 10 kHz and low-pass filtered at 2 kHz, at room temperature. pClamp10 software was used for data acquisition and analysis. Patch electrodes were pulled from Borosilicate glass and fire polished to a resistance of 2-4 MΩ. All drugs were administrated directly to cell bodies under recording through the fast exchange perfusion system.
The intracellular solution (ICS) contains (mM) 145 Cs-methanesulfonate, 8 NaCl, l MgCl2, 4.1 CaCl2, 10 EGTA, and 10 HEPES, 5 ATP, pH at 7.4, with 300-305 mOsm. The extracellular solution (ECS) contains (mM) 140 NaCl, 5 KCl, 2 CaCl2, 20 HEPES, and 10 glucose, pH at 7.4 and with 315-320 mOsm.
Voltage stimuli lasting 250 ms were delivered at 5-s intervals with voltage ramps ranging from −100 to +100 mV. The current values at −80 mV and +80 mV on I-V curve represent the measures of inward and outward current respectively.
Table X and FIGS. 7-51 show screening data for several additional compounds that are variants of M5, M6 or M21. The synthesis of compounds of Table X and FIGS. 7-51 is shown in Appendices A-C. […]

TRPM7 = TRPM7 (Mus musculus, UniProt Q923J1); assay: PI uptake cell death assay in TRPM7-expressing HEK-293 cells (type of assay from Example 1); settings: Table X
Description: The TRPM7 channel provides a pathway for mono- and divalent cations into the cell, and is unique in that it contains a functional C-terminal α-kinase domain. […] The induction of chemical anoxia in host cells such as recombinant HEK293 cells can be used to activate TRPM7. This activation is detectable with the use measurements of cellular calcium accumulation. This is achievable with the use of a fluorescent calcium indicator. Alternatively, this activation can also be measured using radiolabelled Ca2+ (^45Ca^2+) as described previously by Sattler et al. (Sattler et al., 1998) and Aarts et al. (Aarts et al., 2003).
Hoechst 33342 was purchased as a 10 mg/mL solution in water (Molecular Probes Inc., Eugene, Oreg.). Propidium iodide (PI) was purchased as a powder and prepared by dissolving in PBS at 1 mg/mL. PI solutions were stored at 4° C. until use. Hoechst and PI were added directly to cell culture to 5 μg/mL and 10 μg/mL respectively. Cells were incubated at room temperature or at 37° C. for 10 minutes to allow for adequate uptake, and fluorescence observed using a NIKON Eclipse TE2000 inverted microscope and TE-FM Epi-Fluorescence attachment (Nikon Canada).
Untransfected cells or cells transfected with the TRPM7/pTracer or ΔPDZ/pTracer construct were plated onto 24-well plates, 24-hours post-transfection. […] Calcium uptake, as assessed by fluo-3 fluorescence, was measured in response to 0, 5, 10, 15, 20, or 25 mM sodium cyanide (NaCN; Mallinckrodt Baker Inc., Phillipsburg, N.J.) dissolved in aglycaemic HBSS. […] Measurements of fluo-3 fluorescence were taken over a 2 hour period at 10 minutes intervals at room temperature (22-25° C.). […]
Cell death, as assessed by PI uptake, was examined at the end of the 2 hour calcium uptake assay. Cells were stained with 10 μg/mL PI and PI fluorescence measured using the Fluoroskan microplate reader (λ excitation=590 nm, λ emission=630 nm) and accompanying Ascent software (Thermo Electron Corp.). To obtain a reading of maximal fluorescence (Fmax), 0.5% Triton X-100 was added to each well and allowed to incubate for 20 minutes. […]

HeLa = assay: Cell proliferation assay, HeLa; settings: 10 uM, 72 hours
Method: (§1) Cells were grown to 70% confluency, trypsinized, counted, and seeded in 96-well flat-bottom plates at a final concentration of 2.5×10^3-5.0×10^3 cells/well in growth media containing 5% FBS (Day 0). Other well sizes and cell densities were used successfully as well. Cells were allowed to incubate in growth media for 24 hours to allow for maximum adhesion. Treatment with the test agent began on Day 1 and continued for 72 hours either with or without retreatment. At the 72 hour time point, viable cell numbers are quantified by the CellTiter-Glo® cell viability assay as described above, or using standard MTT, SRB or BrDU assays. Experiments were repeated at least twice with the same concentrations to determine growth inhibitory activity. […] In an alternative format, this assay was used to screen potential TRPM7 inhibitory compounds at a fixed concentration, usually 5 or 10 uM. Alternatively, lower or higher concentrations were used. […]
(§2) Data Collection—For the cell proliferation studies, data from each experiment was collected and expressed as % Cell Growth using the following calculation: % Cell Growth=(ftest/fvehicle)×100 Where ftest is the luminescent signal of the tested sample, and fvehicle is the luminescence of the vehicle in which the drug is dissolved (or appropriate measure for the other viability/proliferation measures). […]

MCF7 = assay: Cell proliferation assay, MCF7; settings: 10 uM, 72 hours
Method: as §1, §2

MCF10A = assay: Cell proliferation assay, MCF10A; settings: 10 uM, 72 hours
Method: as §1, §2

B16F10 = assay: Cell proliferation assay, B16F10; settings: 10 uM, 72 hours
Method: as §1, §2

Y79 = assay: Cell proliferation assay, Y79; settings: 10 uM, 72 hours
Method: as §1, §2

DMS53 = assay: Cell proliferation assay, DMS53; settings: 10 uM, 72 hours
Method: as §1, §2

WI-38 = assay: Cell proliferation assay, WI-38; settings: 10 uM, 72 hours
Method: as §1, §2

| SMILES | TRPM7 current (TRPM7 ion channel) | Inhibition of proliferation, HeLa (HeLa) | Inhibition of proliferation, MCF7 (MCF7) | Inhibition of proliferation, MCF10A (MCF10A) | Inhibition of proliferation, B16F10 (B16F10) | Inhibition of proliferation, Y79 (Y79) | other results |
| --- | --- | --- | --- | --- | --- | --- | --- |
| Cc1c(Cc2ccc(Cl)c(Cl)c2)c(=O)oc2cc(O)c(F)cc12 | 5 μM (Those that provide >10% inhibition of TRPM7 channel activity in the HEK293 cell system were labeled with the concentration tested (generally 5 uM)) |  |  |  |  |  |  |
| COc1ccc2sc(C3NCCc4cc(OC)c(OC)cc43)c(Cl)c2c1 (stereo not drawn) |  |  |  |  |  |  | Normalized ratio of PI uptake (5 μM) (TRPM7; 5 μM, the lower the number, the more potent in protecting against cell death): 0.008; Normalized ratio of PI uptake (10 μM) (TRPM7; 10 μM, the lower the number, the more potent): 0.012; IC50 (TRPM7; read-out: IC50 (μM) PI uptake): 0.32 µM |
| CC1c2ccsc2CCN1C(=O)c1sc2ccccc2c1Cl (stereo not drawn) | 5 μM (Those that provide >10% inhibition of TRPM7 channel activity in the HEK293 cell system were labeled with the concentration tested (generally 5 uM)) |  |  |  |  |  |  |
| COc1ccc2sc(C(=O)N3CCCc4cc(C)ccc43)c(Cl)c2c1 |  | + (A ‘+’ sign indicates that more than 40% inhibition was observed) | + (A ‘+’ sign indicates that more than 40% inhibition was observed) | + (A ‘+’ sign indicates that more than 40% inhibition was observed) | + (A ‘+’ sign indicates that more than 40% inhibition was observed) | + (A ‘+’ sign indicates that more than 40% inhibition was observed) |  |
| COc1ccc2c(Cl)c(C(=O)N3CCCc4cc(C)ccc43)sc2c1 |  | + (A ‘+’ sign indicates that more than 40% inhibition was observed) | + (A ‘+’ sign indicates that more than 40% inhibition was observed) | + (A ‘+’ sign indicates that more than 40% inhibition was observed) | + (A ‘+’ sign indicates that more than 40% inhibition was observed) | + (A ‘+’ sign indicates that more than 40% inhibition was observed) | Inhibition of proliferation, DMS53 (DMS53): + (A ‘+’ sign indicates that more than 40% inhibition was observed); Inhibition of proliferation, WI-38 (WI-38): + (A ‘+’ sign indicates that more than 40% inhibition was observed) |
| COc1ccc2c(c1)C(c1sc3ccccc3c1Cl)=NCC2 | 5 μM (Those that provide >10% inhibition of TRPM7 channel activity in the HEK293 cell system were labeled with the concentration tested (generally 5 uM)) |  |  |  |  |  |  |
